# Measurements reported in ChEMBL document CHEMBL1156305, “Orally active and brain permeable proline amides as highly selective 5HT2c agonists for the treatment of obesity” (Bioorg Med Chem Lett, 2010).
# The chains behind the UniProt entries cited, without tags or fusion partners.
# UniProt P41595, whole entry: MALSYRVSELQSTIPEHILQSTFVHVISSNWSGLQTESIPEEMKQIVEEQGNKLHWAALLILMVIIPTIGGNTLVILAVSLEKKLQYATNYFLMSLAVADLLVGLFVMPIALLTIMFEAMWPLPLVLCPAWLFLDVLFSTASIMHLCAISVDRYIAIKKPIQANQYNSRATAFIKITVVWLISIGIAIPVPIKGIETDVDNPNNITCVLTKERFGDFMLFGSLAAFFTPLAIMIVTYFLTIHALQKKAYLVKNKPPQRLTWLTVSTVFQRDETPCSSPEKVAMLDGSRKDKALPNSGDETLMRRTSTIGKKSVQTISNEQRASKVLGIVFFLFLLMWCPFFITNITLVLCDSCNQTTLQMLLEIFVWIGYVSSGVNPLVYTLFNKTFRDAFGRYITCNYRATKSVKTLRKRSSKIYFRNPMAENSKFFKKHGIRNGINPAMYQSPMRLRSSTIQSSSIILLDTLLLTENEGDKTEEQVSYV
# Molecular target: 5-hydroxytryptamine receptor 2B (Homo sapiens, UniProt P41595)
# Assay: Agonist activity at 5HT2B receptor relative to control
# Assay type: functional
smiles,measurement,value
COc1cc(OCC2CCCCC2)c(F)cc1CNC(=O)[C@@H]1CCCN1,Activity,20%
